# Reference: patent publication US7101853B2 (Amylin Pharmaceuticals, Inc., priority 1997, dated 2006)
# Tests used:
# [1] = tested on: treated test animals; assay: Amylin activity in vivo in treated test animals
# [2] = target: T1, amylin receptors (Rattus norvegicus, UniProt P32214); assay: Receptor binding assay (competition with 125I Bolton-Hunter rat amylin, basal forebrain membranes); settings: 125I-amylin 12-16 pM
# T1 construct: This basal forebrain tissue, containing the nucleus accumbens and surrounding regions, was weighed and homogenized; from tissue; host or cells: rat basal forebrain (nucleus accumbens and surrounding regions) membranes
# T1 sequence (P32214 25-516): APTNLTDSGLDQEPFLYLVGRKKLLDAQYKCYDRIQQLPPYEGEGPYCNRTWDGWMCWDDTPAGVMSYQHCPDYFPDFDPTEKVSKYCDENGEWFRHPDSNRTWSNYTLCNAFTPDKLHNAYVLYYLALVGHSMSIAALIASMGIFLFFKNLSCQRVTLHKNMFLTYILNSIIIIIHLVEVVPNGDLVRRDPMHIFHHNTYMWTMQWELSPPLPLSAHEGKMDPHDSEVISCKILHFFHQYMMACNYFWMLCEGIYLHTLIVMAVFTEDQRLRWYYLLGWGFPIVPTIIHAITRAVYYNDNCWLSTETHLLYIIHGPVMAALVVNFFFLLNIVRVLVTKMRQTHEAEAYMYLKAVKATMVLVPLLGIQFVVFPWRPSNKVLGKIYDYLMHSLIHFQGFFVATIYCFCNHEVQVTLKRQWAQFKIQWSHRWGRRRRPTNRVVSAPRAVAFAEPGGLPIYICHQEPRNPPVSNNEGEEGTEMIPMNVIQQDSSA
# T1 sequence (Q9JJ74 27-148 partner): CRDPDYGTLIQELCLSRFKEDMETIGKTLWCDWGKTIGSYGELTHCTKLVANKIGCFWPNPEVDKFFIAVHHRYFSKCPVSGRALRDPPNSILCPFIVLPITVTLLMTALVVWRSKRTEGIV
# Protocol: The receptor binding assay is described in U.S. Pat. No. 5,264,372, issued Nov. 23, 1993, the disclosure of which is incorporated herein by reference. […] A preferred source of the membrane preparations used in the assay is the basal forebrain which comprises membranes from the nucleus accumbens and surrounding regions. […] Competition curves, wherein the amount bound (B) is plotted as a function of the log of the concentration of ligand are analyzed by computer, using analyses by nonlinear regression to a 4-parameter logistic equation (Inplot program; GraphPAD Software, San Diego, Calif.) or the ALLFIT program of DeLean et. al. (ALLFIT, Version 2.7 (NIH, Bethesda, Md. 20892)). […] Specific activities at time of use ranged from 1950 to 2000 Ci/mmol. Unlabeled peptides were obtained from BACHEM Inc. (Torrance, Calif.) and Peninsula Laboratories (Belmont, Calif.). Male Sprague-Dawley rats (200-250) grams were sacrificed by decapitation. Brains were removed to cold phosphate-buffered saline (PBS). From the ventral surface, cuts were made rostral to the hypothalamus, bounded laterally by the olfactory tracts and extending at a 45° angle medially from these tracts. This basal forebrain tissue, containing the nucleus accumbens and surrounding regions, was weighed and homogenized in ice-cold 20 mM HEPES buffer (20 mM HEPES acid, pH adjusted to 7.4 with NaOH at 23° C.). Membranes were washed three times in fresh buffer by centrifugation for 15 minutes at 48,000× g. The final membrane pellet was resuspended in 20 mM HEPES buffer containing 0.2 mM phenylmethylsulfonyl fluoride (PMSF). […] Solutions were incubated for 60 minutes at 23° C. […] Filters were removed and radioactivity assessed in a gamma-counter at a counting efficiency of 77 %. Competition curves were generated by measuring binding in the presence of 10^−12 to 10^−6 M unlabeled test compound and were analyzed by nonlinear regression using a 4-parameter logistic equation (Inplot program; GraphPAD Software, San Diego).
smiles,measurement,setting,value
"CC[C@H](C)[C@H](NC(=O)[C@@H]1CCCN1C(=O)CNC(=O)[C@H](Cc1ccccc1)NC(=O)[C@H](CC(N)=O)NC(=O)[C@H](CC(N)=O)NC(=O)[C@H](CO)NC(=O)[C@H](CO)NC(=O)[C@H](CCCNC(=N)N)NC(=O)[C@@H](NC(=O)[C@H](CC(C)C)NC(=O)[C@H](Cc1ccccc1)NC(=O)[C@H](CC(N)=O)NC(=O)[C@H](C)NC(=O)[C@H](CC(C)C)NC(=O)[C@H](CCCNC(=N)N)NC(=O)[C@H](CCC(N)=O)NC(=O)[C@@H](NC(=O)[C@H](C)NC(=O)[C@@H]1CSSC[C@H](NC(=O)[C@@H](N)CCCCN)C(=O)N[C@@H](CC(N)=O)C(=O)N[C@@H]([C@@H](C)O)C(=O)N[C@@H](C)C(=O)N[C@@H]([C@@H](C)O)C(=O)N1)[C@@H](C)O)C(C)C)C(=O)N[C@@H](CC(C)C)C(=O)N1CCC[C@H]1C(=O)N[C@@H](CO)C(=O)N[C@H](C(=O)N[C@@H](CC(N)=O)C(=O)N[C@H](C(=O)NCC(=O)N[C@@H](CO)C(=O)N[C@@H](CC(N)=O)C(=O)N[C@H](C(=O)N[C@@H](Cc1ccc(O)cc1)C(N)=O)[C@@H](C)O)C(C)C)[C@@H](C)O [^18Arg^25,28Pro-h-Amylin]",Amylin activity in vivo,[1],show amylin activity in vivo
CC[C@H](C)[C@H](NC(=O)[C@H](C)NC(=O)CNC(=O)[C@H](Cc1ccccc1)NC(=O)[C@H](CC(N)=O)NC(=O)[C@H](CC(N)=O)NC(=O)[C@H](CO)NC(=O)[C@H](CO)NC(=O)[C@H](Cc1c[nH]cn1)NC(=O)[C@@H](NC(=O)[C@H](CC(C)C)NC(=O)[C@H](Cc1ccccc1)NC(=O)[C@H](CC(N)=O)NC(=O)[C@H](C)NC(=O)[C@H](CC(C)C)NC(=O)[C@H](CCCNC(=N)N)NC(=O)[C@H](CCC(N)=O)NC(=O)[C@@H](NC(=O)[C@H](C)NC(=O)[C@@H]1CSSC[C@H](NC(=O)[C@@H](N)CCCCN)C(=O)N[C@@H](CC(N)=O)C(=O)N[C@@H]([C@@H](C)O)C(=O)N[C@@H](C)C(=O)N[C@@H]([C@@H](C)O)C(=O)N1)[C@@H](C)O)C(C)C)C(=O)N[C@@H](CC(C)C)C(=O)N1CCC[C@H]1C(=O)N[C@@H](CO)C(=O)N[C@H](C(=O)N[C@@H](CC(N)=O)C(=O)N[C@H](C(=O)NCC(=O)N[C@@H](CO)C(=O)N[C@@H](CC(N)=O)C(=O)N[C@H](C(=O)N[C@@H](Cc1ccc(O)cc1)C(N)=O)[C@@H](C)O)C(C)C)[C@@H](C)O [^28Pro-h-Amylin],Amylin activity in vivo,[1],show amylin activity in vivo
"CC[C@H](C)[C@H](NC(=O)[C@@H]1CCCN1C(=O)CNC(=O)[C@H](Cc1ccccc1)NC(=O)[C@H](CC(N)=O)NC(=O)[C@H](CC(N)=O)NC(=O)[C@H](CO)NC(=O)[C@H](CO)NC(=O)[C@H](CCCNC(=N)N)NC(=O)[C@@H](NC(=O)[C@H](CC(C)C)NC(=O)[C@H](Cc1ccccc1)NC(=O)[C@H](CC(N)=O)NC(=O)[C@H](C)NC(=O)[C@H](CC(C)C)NC(=O)[C@H](CCCNC(=N)N)NC(=O)[C@H](CCC(N)=O)NC(=O)[C@@H](NC(=O)[C@H](C)NC(=O)[C@@H]1CSSC[C@H](N)C(=O)N[C@@H](CC(N)=O)C(=O)N[C@@H]([C@@H](C)O)C(=O)N[C@@H](C)C(=O)N[C@@H]([C@@H](C)O)C(=O)N1)[C@@H](C)O)C(C)C)C(=O)N[C@@H](CC(C)C)C(=O)N1CCC[C@H]1C(=O)N1CCC[C@H]1C(=O)N[C@H](C(=O)N[C@@H](CC(N)=O)C(=O)N[C@H](C(=O)NCC(=O)N[C@@H](CO)C(=O)N[C@@H](CC(N)=O)C(=O)N[C@H](C(=O)N[C@@H](Cc1ccc(O)cc1)C(N)=O)[C@@H](C)O)C(C)C)[C@@H](C)O [des-^1Lys^18Arg^25,28,29Pro-h-Amylin]",IC50,[2],21 pM
"CC[C@H](C)[C@H](NC(=O)[C@@H]1CCCN1C(=O)CNC(=O)[C@H](Cc1ccccc1)NC(=O)[C@H](CC(N)=O)NC(=O)[C@H](CC(N)=O)NC(=O)[C@H](CO)NC(=O)[C@H](CO)NC(=O)[C@H](CCCNC(=N)N)NC(=O)[C@@H](NC(=O)[C@H](CC(C)C)NC(=O)[C@H](Cc1ccccc1)NC(=O)[C@H](CC(N)=O)NC(=O)[C@H](C)NC(=O)[C@H](CC(C)C)NC(=O)[C@H](CCCNC(=N)N)NC(=O)[C@H](CCC(N)=O)NC(=O)[C@@H](NC(=O)[C@H](C)NC(=O)[C@@H]1CSSC[C@H](N)C(=O)N[C@@H](CC(N)=O)C(=O)N[C@@H]([C@@H](C)O)C(=O)N[C@@H](C)C(=O)N[C@@H]([C@@H](C)O)C(=O)N1)[C@@H](C)O)C(C)C)C(=O)N[C@@H](CC(C)C)C(=O)N1CCC[C@H]1C(=O)N[C@@H](CO)C(=O)N[C@H](C(=O)N[C@@H](CC(N)=O)C(=O)N[C@H](C(=O)NCC(=O)N[C@@H](CO)C(=O)N[C@@H](CC(N)=O)C(=O)N[C@H](C(=O)N[C@@H](Cc1ccc(O)cc1)C(N)=O)[C@@H](C)O)C(C)C)[C@@H](C)O [des-^1Lys^18Arg^25,28Pro-h-Amylin]",IC50,[2],82 pM
same,Amylin activity in vivo,[1],show amylin activity in vivo
"CC[C@H](C)[C@H](NC(=O)[C@@H]1CCCN1C(=O)CNC(=O)[C@H](Cc1ccccc1)NC(=O)[C@H](CC(N)=O)NC(=O)[C@H](CC(N)=O)NC(=O)[C@H](CO)NC(=O)[C@H](CO)NC(=O)[C@H](Cc1c[nH]cn1)NC(=O)[C@@H](NC(=O)[C@H](CC(C)C)NC(=O)[C@H](Cc1ccccc1)NC(=O)[C@H](CC(N)=O)NC(=O)[C@H](C)NC(=O)[C@H](CC(C)C)NC(=O)[C@H](CCCNC(=N)N)NC(=O)[C@H](CCC(N)=O)NC(=O)[C@@H](NC(=O)[C@H](C)NC(=O)[C@@H]1CSSC[C@H](N)C(=O)N[C@@H](CC(N)=O)C(=O)N[C@@H]([C@@H](C)O)C(=O)N[C@@H](C)C(=O)N[C@@H]([C@@H](C)O)C(=O)N1)[C@@H](C)O)C(C)C)C(=O)N[C@@H](CC(C)C)C(=O)N1CCC[C@H]1C(=O)N1CCC[C@H]1C(=O)N[C@H](C(=O)N[C@@H](CC(N)=O)C(=O)N[C@H](C(=O)NCC(=O)N[C@@H](CO)C(=O)N[C@@H](CC(N)=O)C(=O)N[C@H](C(=O)N[C@@H](Cc1ccc(O)cc1)C(N)=O)[C@@H](C)O)C(C)C)[C@@H](C)O [des-^1Lys^25,28,29Pro-h-Amylin]",IC50,[2],14 pM
